In patent publication US11207423B2, “Nanocarriers having surface conjugated peptides and uses thereof for sustained local release of drugs” (Northwestern University, priority 2016, dated 2021):

Assays:
[1] = Particle size measurement (dynamic light scattering); type: physicochemical
Experimental: (§1) Sample characteristics (particle size, polydispersity and zeta-potential) were measured by a dynamic light scattering method using Malvern Zeta Sizer Nano-S90 instrument according to the manufacturer recommendations. Briefly, hydrodynamic diameter (dh) and polydispersity index (PDI) of nanogel/microgels were obtained for 1 mg/mL aqueous solutions at 25° C. in triplicates after sonication for 30 min and centrifugation at 12,000 rpm. Zeta-potential of the samples was measured for the same solutions in standard 1 cm-cuvettesusing zeta-potential option in the company's software. Average of five measurements±SD was registered.
(§2) Peptide concentration was estimated by BCA (Pierce) protein assay against a standard curve of free peptide. Zeta potential and size was measured on non-rhodamine product using electrophoretic light scattering and dynamic light scattering, respectively (Zetasizer, Malvern). The Z averaged particle size is 15 nm and the full width at half maximum of the distribution peak is 24 nm. Zeta potentials for 1-Arg, 2-Arg, 3-Arg and 4-Arg peptide conjugates were 0.07 mV, 2.2 mV, 4.6 mV and 9.2 mV respectively (Table 2).

[2] = Zeta potential measurement (electrophoretic light scattering); type: physicochemical
Experimental: as §1, §2

With “CDEX70-3pyrrol-adipic-N-Sar-Tyr-Asn-Leu-Tyr-Arg-Val-Arg-Ser-amide” as the substance, how does the “release of bioactive peptide per day of the NP-bound amount” value (HEPES buffer, pH7.4, 37° C) read?
Its value is “approximately 2 % per day”.

What about the “half-life of peptide release” value (pH 7.4) of the same substance?
The value was 28 days.

What about the Particle size [1] of the same substance?
Its Particle size is 178.3 ± 9.42 nm.

What about the Zeta potential [2] of the same substance?
Its Zeta potential is 2.31 ± 0.38 mV.
